{"sequences": {"note": "By UniProt entry, the sequences of proteins in these tests, tags left out. Residues count along the entry.", "UniProt P07949, 29-1114": "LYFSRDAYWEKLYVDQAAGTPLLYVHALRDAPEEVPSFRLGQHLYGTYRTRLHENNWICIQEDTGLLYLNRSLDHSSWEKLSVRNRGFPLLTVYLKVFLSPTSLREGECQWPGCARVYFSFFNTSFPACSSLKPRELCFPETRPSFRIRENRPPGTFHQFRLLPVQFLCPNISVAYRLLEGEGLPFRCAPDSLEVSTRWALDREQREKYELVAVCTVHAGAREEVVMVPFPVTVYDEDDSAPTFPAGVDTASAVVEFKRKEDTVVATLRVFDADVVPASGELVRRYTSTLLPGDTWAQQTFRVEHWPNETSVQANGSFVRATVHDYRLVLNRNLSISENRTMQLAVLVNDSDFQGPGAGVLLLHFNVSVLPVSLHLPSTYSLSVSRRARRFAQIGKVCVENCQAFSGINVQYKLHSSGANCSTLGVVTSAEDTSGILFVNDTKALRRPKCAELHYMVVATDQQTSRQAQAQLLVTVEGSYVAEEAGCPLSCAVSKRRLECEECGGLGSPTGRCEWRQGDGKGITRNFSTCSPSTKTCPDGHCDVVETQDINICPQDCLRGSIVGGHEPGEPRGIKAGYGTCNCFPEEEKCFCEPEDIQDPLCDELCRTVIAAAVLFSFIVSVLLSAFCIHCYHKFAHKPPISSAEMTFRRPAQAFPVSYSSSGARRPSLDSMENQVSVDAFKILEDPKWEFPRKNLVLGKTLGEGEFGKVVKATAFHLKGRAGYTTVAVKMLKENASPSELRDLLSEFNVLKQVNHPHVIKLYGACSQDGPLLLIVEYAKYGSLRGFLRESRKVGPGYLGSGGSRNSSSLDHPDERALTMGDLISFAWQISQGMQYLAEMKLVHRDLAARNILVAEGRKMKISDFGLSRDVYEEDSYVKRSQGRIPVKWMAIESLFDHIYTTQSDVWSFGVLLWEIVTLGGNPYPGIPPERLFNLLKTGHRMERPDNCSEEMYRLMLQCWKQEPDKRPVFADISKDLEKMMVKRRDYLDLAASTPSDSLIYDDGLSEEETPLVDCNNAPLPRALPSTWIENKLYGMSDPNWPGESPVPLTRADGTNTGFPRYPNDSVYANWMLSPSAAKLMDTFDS", "UniProt P07949, 29-1114 V804M": "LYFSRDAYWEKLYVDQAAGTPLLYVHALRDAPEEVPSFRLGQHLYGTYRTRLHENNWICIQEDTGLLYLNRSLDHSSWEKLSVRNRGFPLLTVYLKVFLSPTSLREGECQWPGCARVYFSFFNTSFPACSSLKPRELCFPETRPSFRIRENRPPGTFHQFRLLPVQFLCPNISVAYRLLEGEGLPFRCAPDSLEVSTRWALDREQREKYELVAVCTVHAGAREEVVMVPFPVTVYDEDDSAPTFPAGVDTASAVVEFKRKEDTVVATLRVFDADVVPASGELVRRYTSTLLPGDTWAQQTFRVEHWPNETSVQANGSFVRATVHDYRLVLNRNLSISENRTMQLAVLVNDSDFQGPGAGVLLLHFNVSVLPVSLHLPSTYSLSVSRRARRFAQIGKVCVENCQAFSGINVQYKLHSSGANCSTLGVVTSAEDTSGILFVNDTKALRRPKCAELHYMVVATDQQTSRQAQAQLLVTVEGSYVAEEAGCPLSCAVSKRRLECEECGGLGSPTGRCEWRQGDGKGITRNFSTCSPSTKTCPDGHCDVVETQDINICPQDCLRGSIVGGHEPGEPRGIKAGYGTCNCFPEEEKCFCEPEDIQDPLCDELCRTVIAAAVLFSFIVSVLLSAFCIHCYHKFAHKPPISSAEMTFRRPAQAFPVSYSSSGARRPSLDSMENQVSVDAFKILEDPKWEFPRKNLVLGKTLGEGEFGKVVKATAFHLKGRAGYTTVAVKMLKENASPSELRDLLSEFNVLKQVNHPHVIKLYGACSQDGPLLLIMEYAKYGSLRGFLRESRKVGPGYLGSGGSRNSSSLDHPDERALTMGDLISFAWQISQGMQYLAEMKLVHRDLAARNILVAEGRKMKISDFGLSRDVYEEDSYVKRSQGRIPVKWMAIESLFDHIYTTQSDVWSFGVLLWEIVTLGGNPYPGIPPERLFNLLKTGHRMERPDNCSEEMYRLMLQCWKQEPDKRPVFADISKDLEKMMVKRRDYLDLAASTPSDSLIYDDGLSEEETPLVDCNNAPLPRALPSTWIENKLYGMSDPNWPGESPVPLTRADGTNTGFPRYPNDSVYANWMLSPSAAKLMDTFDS", "UniProt P07949, 29-1114 M918T": "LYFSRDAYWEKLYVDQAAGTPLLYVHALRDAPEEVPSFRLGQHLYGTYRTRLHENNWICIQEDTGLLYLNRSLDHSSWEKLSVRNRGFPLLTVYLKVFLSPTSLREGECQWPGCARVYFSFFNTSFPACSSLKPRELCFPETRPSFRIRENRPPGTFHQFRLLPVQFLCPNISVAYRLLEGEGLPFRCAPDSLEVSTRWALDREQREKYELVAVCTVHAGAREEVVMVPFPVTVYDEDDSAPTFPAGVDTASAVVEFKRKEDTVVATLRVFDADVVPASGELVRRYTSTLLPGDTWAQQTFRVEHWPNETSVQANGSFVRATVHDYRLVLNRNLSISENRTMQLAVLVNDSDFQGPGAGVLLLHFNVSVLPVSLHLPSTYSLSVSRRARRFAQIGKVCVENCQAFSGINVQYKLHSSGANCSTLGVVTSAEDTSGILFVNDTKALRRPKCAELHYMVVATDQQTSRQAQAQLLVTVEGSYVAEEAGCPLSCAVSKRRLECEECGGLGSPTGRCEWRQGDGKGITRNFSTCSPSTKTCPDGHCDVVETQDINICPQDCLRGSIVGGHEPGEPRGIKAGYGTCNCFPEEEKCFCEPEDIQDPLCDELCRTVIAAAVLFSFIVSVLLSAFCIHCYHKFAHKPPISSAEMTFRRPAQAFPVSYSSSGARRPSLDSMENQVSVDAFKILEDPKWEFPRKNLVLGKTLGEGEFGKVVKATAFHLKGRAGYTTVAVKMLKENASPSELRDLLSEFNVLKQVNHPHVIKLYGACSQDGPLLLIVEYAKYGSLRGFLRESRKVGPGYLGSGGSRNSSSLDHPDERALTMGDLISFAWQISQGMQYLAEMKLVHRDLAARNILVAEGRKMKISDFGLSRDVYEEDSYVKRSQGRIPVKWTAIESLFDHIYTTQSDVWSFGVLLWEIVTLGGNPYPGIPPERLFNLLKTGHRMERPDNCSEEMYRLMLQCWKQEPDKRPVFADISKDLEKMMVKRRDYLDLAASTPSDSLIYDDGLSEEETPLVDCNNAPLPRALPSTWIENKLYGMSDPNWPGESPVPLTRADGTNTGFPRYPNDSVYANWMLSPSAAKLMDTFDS", "UniProt P07949, 29-1114 V804L": "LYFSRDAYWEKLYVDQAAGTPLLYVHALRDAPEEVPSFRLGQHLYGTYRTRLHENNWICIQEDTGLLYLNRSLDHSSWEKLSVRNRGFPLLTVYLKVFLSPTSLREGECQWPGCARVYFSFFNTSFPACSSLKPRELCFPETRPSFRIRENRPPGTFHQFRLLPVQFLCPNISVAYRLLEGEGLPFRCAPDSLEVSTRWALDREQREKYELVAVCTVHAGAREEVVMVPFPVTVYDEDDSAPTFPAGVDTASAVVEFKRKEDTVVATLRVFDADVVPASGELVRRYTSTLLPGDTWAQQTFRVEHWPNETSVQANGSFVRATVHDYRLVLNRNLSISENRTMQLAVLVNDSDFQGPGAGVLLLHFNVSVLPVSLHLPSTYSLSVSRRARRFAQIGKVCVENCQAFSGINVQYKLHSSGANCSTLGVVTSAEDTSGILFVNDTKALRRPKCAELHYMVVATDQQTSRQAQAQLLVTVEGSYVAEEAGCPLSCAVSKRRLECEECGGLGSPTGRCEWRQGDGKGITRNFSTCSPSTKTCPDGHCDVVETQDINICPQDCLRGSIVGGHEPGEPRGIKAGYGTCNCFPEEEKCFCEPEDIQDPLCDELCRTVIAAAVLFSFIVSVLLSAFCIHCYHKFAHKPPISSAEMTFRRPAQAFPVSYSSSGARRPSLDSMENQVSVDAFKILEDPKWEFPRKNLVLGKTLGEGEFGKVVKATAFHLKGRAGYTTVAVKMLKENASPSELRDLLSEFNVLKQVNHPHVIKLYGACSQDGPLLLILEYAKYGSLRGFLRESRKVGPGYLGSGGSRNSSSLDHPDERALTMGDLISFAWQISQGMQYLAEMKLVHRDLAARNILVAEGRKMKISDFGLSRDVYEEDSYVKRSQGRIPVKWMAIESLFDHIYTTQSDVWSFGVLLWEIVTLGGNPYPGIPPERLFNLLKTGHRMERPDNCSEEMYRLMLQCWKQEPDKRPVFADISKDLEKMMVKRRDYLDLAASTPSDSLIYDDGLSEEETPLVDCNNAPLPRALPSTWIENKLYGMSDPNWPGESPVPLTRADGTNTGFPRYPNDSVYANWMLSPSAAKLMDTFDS"}, "source": "paper PMC5119973", "about": "(Cancer Medicine, 2016)", "key": {"[1]": {"experiment": "Plasma pharmacokinetics in female NMRI Foxn1 nu/nu mice", "conditions": "after regorafenib 10 mg/kg/day oral for 5 days; total = sum of molar concentrations of regorafenib, M‐2, M‐5", "method": "Analyte concentrations were measured by high‐performance liquid chromatography using a Hewlett Packard 1100 Series system (Palo Alto, CA), with tandem mass spectrometric detection using an Applied Biosystems API 4000 (Thermo Fisher Scientific, Waltham, MA). The assay was validated according to the applicable guideline on method validation 11. The lower limit of quantitation for the assay was 2.00 μg/L, with a linear range of 2.00–20,000 μg/L using a sample volume of 100 μL.\nPharmacokinetic studies were performed in female NMRI Foxn1 nu/nu mice, supplied by Harlan‐Winkelmann GmbH (Borchen, Germany). […] Pharmacokinetic parameters, namely the AUC(0–24)ss and C max, were calculated from plasma concentrations using a noncompartmental analysis."}, "RET": {"molecular_target": "T1, RET (Homo sapiens, UniProt P07949)", "T1 construct": "purchased DiscoveRx", "experiment": "KINOMEscan active-site competitive binding assay", "conditions": "slash = two separate measurements"}, "RET^V804M": {"molecular_target": "T2, RET^V804M (Homo sapiens, UniProt P07949, V804M)", "T2 construct": "purchased DiscoveRx (KINOMEscan service)", "experiment": "KINOMEscan active-site competitive binding assay"}, "RET^M918T": {"molecular_target": "T3, RET^M918T (Homo sapiens, UniProt P07949, M918T)", "T3 construct": "purchased DiscoveRx (KINOMEscan service)", "experiment": "KINOMEscan active-site competitive binding assay"}, "RET^V804L": {"molecular_target": "T4, RET^V804L (Homo sapiens, UniProt P07949, V804L)", "T4 construct": "purchased DiscoveRx (KINOMEscan service)", "experiment": "KINOMEscan active-site competitive binding assay"}}, "note": "“And” between values parts separate entries of the source, which are not always exact repeats. Equal values may be shown once.", "data": [{"smiles": "CNC(=O)c1cc(Oc2ccc(NC(=O)Nc3ccc(Cl)c(C(F)(F)F)c3)c(F)c2)ccn1", "note": "[Regorafenib, reference compound]", "values": [{"measurement": "AUC (% of total)", "setting": "[1]", "value": 83, "unit": "%"}, {"measurement": "Kd", "setting": "RET", "value": "5.2 nM and 7.7 nM"}, {"measurement": "Kd", "setting": "RET^V804M", "value": 23, "unit": "nM"}, {"measurement": "Kd", "setting": "RET^M918T", "value": 7.1, "unit": "nM"}, {"measurement": "Kd", "setting": "RET^V804L", "value": 19, "unit": "nM"}]}]}
